Assay [1] deals with rats exposed to acute altitude hypoxia. The assay can be described thus: Renal function in rats exposed to acute altitude hypoxia. Type of assay: in vivo, Wistar rat. The note with it: female rats, normoxia, 0.11 g/kg.
Assay [2] has as its system rats with acute altitude hypoxia injury. The assay can be described thus: Oxidative stress indexes of rats with acute altitude hypoxia injury. Type of assay: in vivo, Wistar rat. The conditions noted are these: male rats, 0.11 g/kg. The source says:
Determination of malondialdehyde: […] Operate according to the instructions, and then measure the absorbance value of each tube, and afterwards calculate the content of malondialdehyde in the sample to be tested according to the formula. Determination of superoxide dismutase: […] The latter oxidizes hydroxylamine to form nitrite. It appears purplish red under the action of chromogenic agent. Measure its absorbance by a visible light spectrophotometer. When the measured sample contains superoxide dismutase, it has specific inhibitory effect on superoxide anion free radicals, make formed nitrite reduced. The absorbance value of the measuring tube is lower than that of the control tube during colorimetry. The superoxide dismutase activity in the tested sample can be calculated by formula calculation. […] Determination of total antioxidant capacity (T-AOC): […] The latter can form a stable complex with phenanthrophins and measure its antioxidant capacity by colorimetry. Operate according to the kit instructions, measure the absorbance of each tube at a wavelength of 520 nm, and then calculate the total antioxidant capacity in the sample to be tested according to the formula.

As to `CC(=O)Nc1nnc(S(N)(=O)=O)s1` [Acetazolamide, reference compound], the Serum urea nitrogen in assay [1] stood at 7.86 ± 0.49 mmol/L. The molecule further yielded a Total antioxidants in assay [2] of 1.23 ± 1.93 U/ml.

(Values after patent US20220023289A1, “Application Of Pyrroloquinoline Quinone In Preparation Of Medicament Used For Preventing And Treating Acute Altitude Sickness And Acute Altitude Hypoxia Injury” (priority 2018, published 2022).)
